# Measurements: PubChem BioAssay AID1040 (The Scripps Research Institute Molecular Screening Center, 2008)
# The chains behind the UniProt entries cited, without tags or fusion partners.
# UniProt P25929, whole entry: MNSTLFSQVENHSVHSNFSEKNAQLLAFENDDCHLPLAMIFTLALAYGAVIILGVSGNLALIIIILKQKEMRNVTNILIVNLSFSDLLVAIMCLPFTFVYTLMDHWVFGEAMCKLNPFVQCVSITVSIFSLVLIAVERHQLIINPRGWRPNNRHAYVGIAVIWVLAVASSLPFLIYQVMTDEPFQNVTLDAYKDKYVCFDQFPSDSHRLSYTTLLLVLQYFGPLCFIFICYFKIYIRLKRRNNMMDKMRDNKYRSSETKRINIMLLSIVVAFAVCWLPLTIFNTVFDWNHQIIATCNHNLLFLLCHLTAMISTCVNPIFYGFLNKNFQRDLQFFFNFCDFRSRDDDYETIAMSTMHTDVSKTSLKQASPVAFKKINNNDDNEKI
# The entries are a selection whose mix differs from that of the whole data set. Calls of active or inactive are those of the source.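 Rule for the calls: active = inhibition above the campaign mean inhibition of all tested compounds plus 3 SD (cut at about 20% in these data); inactive = the rest.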
# Molecular target: Neuropeptide Y receptor type 1 (Homo sapiens) (UniProt P25929)
# Assay: blockers of human neuropeptide Y Y1 receptor – cell-based, primary screen (AID 1040);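 note: 0% = DMSO wells given NPY plus isoproterenol and 100% = isoproterenol alone without NPY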
# Conditions: HEK293-CNG Y1 cells, membrane potential fluorescence; at 3.6 µM; hits give high values; NPY at EC95, then isoproterenol
row,SMILES,inhibition
1,O=C(OCCN1CCN(CCOCc2ccccc2)CC1)C(O)(c1ccccc1)c1ccccc1,inactive: 3.74%
2,CC(C)c1ccc(OP(C)(=O)Nc2ccc(SC(F)(F)F)cc2)cc1 (stereo not given),inactive: -0.5%
3,CP(=O)(Nc1ccccc1F)Oc1ccccc1 (stereo not given),inactive: -4.3%
4,CCN(CC)CCCOC(=O)C(O)(c1ccccc1)C1CCCCC1 (stereo not given),inactive: 2.62%
5,CP(=O)(Nc1ccccc1)Oc1ccc(F)cc1 (stereo not given),inactive: 7.2%
6,COc1ccc(OP(C)(=O)Nc2ccc(SC(F)(F)F)cc2)cc1 (stereo not given),inactive: 1.29%
7,CCOC(=O)c1ccc(NP(C)(=O)Oc2ccc(F)cc2)cc1 (stereo not given),inactive: 4.33%
8,O=[N+]([O-])c1cc([N+](=O)[O-])c(NCC2CCS(=O)(=O)C2)c([N+](=O)[O-])c1 (stereo not given),inactive: 3.62%
9,COc1ccc(OP(C)(=O)Nc2cccc(Br)c2)cc1 (stereo not given),inactive: 9.32%
10,COc1ccc(NP(C)(=O)Oc2ccccc2OC)cc1 (stereo not given),inactive: 1.53%
11,CN(C)CCOC(=O)C(O)(c1ccccc1)C1CCCCC1 (stereo not given),inactive: 0.51%
12,CP(=O)(Nc1ccc2c(c1)OCCO2)Oc1ccccc1 (stereo not given),inactive: -5.67%
13,Cc1ccccc1NP(C)(=O)Nc1ccccc1C,inactive: -5.37%
14,CCOP(C)(=S)SCC(=O)NC(C)(CC)C(=O)O (stereo not given),inactive: 8.26%
15,CP(=O)(Nc1ccc(Cl)cc1)Oc1ccc(F)cc1 (stereo not given),inactive: 8.57%
16,COc1ccccc1OP(C)(=O)Nc1ccccc1Br (stereo not given),inactive: -3.67%
17,CC(C)(C)c1ccc(OP(C)(=O)O)cc1,inactive: 1.93%
18,CN(C)C(=O)c1c([N+](=O)[O-])cc([N+](=O)[O-])cc1[N+](=O)[O-],inactive: -1.51%
19,CCN(CC)CC(O)COC(=O)C(O)(c1ccccc1)C1CCCCC1 (stereo not given),inactive: 10.9%
20,COc1ccc(OP(C)(=O)Nc2ccc(Br)cc2)cc1 (stereo not given),inactive: -4.29%
21,CP(=O)(Oc1ccccc1)N1CCOC1=O (stereo not given),inactive: 2.32%
22,CCc1ccc(OP(C)(=O)Nc2cccnc2)cc1 (stereo not given),inactive: -2.34%
23,COc1ccccc1OP(C)(=O)Nc1c(C)n(C)n(-c2ccccc2)c1=O (stereo not given),inactive: -3.69%
24,CP(=O)(OC12CC3CC(CC(C3)C1)C2)OC12CC3CC(CC(C3)C1)C2,inactive: 10.7%

row,SMILES,inhibition
1,CCOC(=O)c1ccc(NP(C)(=O)Oc2ccc(Cl)cc2)cc1 (stereo not given),inactive: -6.49%
2,Cc1nc2ccc3ccccc3c2o1.O=[N+]([O-])c1cc([N+](=O)[O-])c(O)c([N+](=O)[O-])c1,inactive: 15%
3,CP(=O)(Nc1ccc(Cl)cc1Cl)Oc1ccccc1 (stereo not given),inactive: -2.61%
4,CP(=O)(OCCOc1ccccc1)OCCOc1ccccc1,inactive: 17.5%
5,Cc1cc(C)cc(OP(C)(=O)Nc2cccc(C(F)(F)F)c2)c1 (stereo not given),inactive: -3.14%
6,COc1ccc(OP(C)(=O)Nc2ccccc2Br)cc1 (stereo not given),inactive: -0.43%
7,COc1ccccc1OP(C)(=O)Nc1ccc(C)c(C)c1 (stereo not given),inactive: 3.67%
8,Cc1c(NP(C)(=O)Oc2ccc(C(C)C)cc2)c(=O)n(-c2ccccc2)n1C (stereo not given),inactive: -3.73%
9,O=[N+]([O-])c1cc([N+](=O)[O-])c(Nc2ccccn2)c([N+](=O)[O-])c1,inactive: -0.68%
10,CCc1ccc(OP(C)(=O)O)cc1,inactive: 17.9%
11,CP(=O)(Nc1ccccn1)Oc1ccccc1 (stereo not given),inactive: -1.66%
12,COc1ccccc1OP(C)(=O)Nc1ccc(C)cc1C (stereo not given),inactive: 2.63%
13,CN(C)CCOC(=O)C(O)(c1ccccc1)C1CCCC1 (stereo not given),inactive: 4.1%
14,COc1ccc(OP(C)(=O)Nc2ccccn2)cc1 (stereo not given),inactive: -2.63%
15,CCN(CC)CCCOC(=O)C(O)(c1ccccc1)c1ccccc1,inactive: 3.89%
16,CCOC(=O)c1ccc(NP(C)(=O)Oc2ccccc2)cc1 (stereo not given),inactive: 2.83%
17,COc1ccccc1OP(C)(=O)Nc1ccc(C)cc1 (stereo not given),inactive: 0.52%
18,Cc1ccc(NP(C)(=O)Oc2ccccc2)c(C)c1 (stereo not given),inactive: -1.09%
19,COc1ccccc1OP(C)(=O)Nc1cc(Cl)ccc1C (stereo not given),inactive: -5.63%
20,COc1ccc(OP(C)(=O)Nc2cccc(F)c2)cc1 (stereo not given),inactive: -0.63%
21,Cc1cc(C)cc(OP(C)(N)=O)c1 (stereo not given),inactive: 3.37%
22,CC(C)(C)c1ccc(OP(C)(=O)Nc2ccc(SC(F)(F)F)cc2)cc1 (stereo not given),inactive: 2.92%
23,Cc1cccc(C)c1OP(C)(N)=O (stereo not given),inactive: -2.4%
24,O=[N+]([O-])c1ccc2c(c1)C=Nc1ccccc1O2,inactive: 4.5%

row,SMILES,inhibition
1,CP(=S)(Nn1cnnc1)Oc1ccccc1 (stereo not given),inactive: 1.27%
2,COc1ccccc1OP(C)(=O)Nc1ccccc1 (stereo not given),inactive: -3.3%
3,CP(=O)(Nc1ccccc1Br)Oc1ccccc1 (stereo not given),inactive: -1%
4,CCOP(C)(=S)SCC(=O)NC(C)C(=O)O (stereo not given),inactive: -0.76%
5,CCOC(=O)c1ccc(NP(C)(=O)Oc2ccc(OC)cc2)cc1 (stereo not given),inactive: -4.78%
6,CP(=O)(Nc1ccccn1)Oc1ccc(Cl)cc1 (stereo not given),inactive: -1.35%
7,Cc1cccc(C)c1OP(C)(=O)Nc1ccc(SC(F)(F)F)cc1 (stereo not given),inactive: -8.28%
8,CP(=O)(Oc1ccccc1)OC(c1ccccc1)C(F)(F)F (stereo not given),inactive: 3.82%
9,CP(=O)(NC(=O)Nc1ccccc1)Oc1ccccc1 (stereo not given),inactive: -2.93%
10,Cc1cc(C)cc(OP(C)(=O)Nc2ccc(SC(F)(F)F)cc2)c1 (stereo not given),inactive: -7.22%
11,Cc1nc2ccc3ccccc3c2s1.O=[N+]([O-])c1cc([N+](=O)[O-])c(O)c([N+](=O)[O-])c1,inactive: 9.41%
12,O=[N+]([O-])c1cc([N+](=O)[O-])c(-n2nnc3ccccc32)c([N+](=O)[O-])c1,inactive: 5.68%
13,COc1ccccc1OP(C)(=O)Nc1c(C)cccc1C (stereo not given),inactive: 4.89%
14,CN1CCCCC1COC(=O)C1(O)c2ccccc2CCc2ccccc21 (stereo not given),inactive: 2.82%
15,CCCOc1ccc(NP(C)(=O)Oc2ccc(Cl)cc2)cc1 (stereo not given),inactive: -2.08%
16,CP(=O)(Nc1ccc(SC(F)(F)F)cc1)Oc1ccccc1 (stereo not given),inactive: -0.28%
17,CC1=NCCc2c1[nH]c1ccccc21.O=[N+]([O-])c1cc([N+](=O)[O-])c(O)c([N+](=O)[O-])c1,inactive: 9.89%
18,Cc1cc(C)cc(OP(C)(=O)Nc2ccccn2)c1 (stereo not given),inactive: 4.4%
19,CP(=O)(Nc1cccc(Br)c1)Oc1ccccc1 (stereo not given),inactive: -1.79%
20,Cc1ccc(C)c(NP(C)(=O)Oc2ccccc2)c1 (stereo not given),inactive: 3.79%
21,Cc1cc(C)cc(OP(C)(=O)Nc2ccc(C)cc2C)c1 (stereo not given),inactive: 4.21%
22,CCOC(=O)c1ccc(NP(C)(=O)Oc2cc(C)cc(C)c2)cc1 (stereo not given),inactive: -1.55%
